The text below walks through data of ChEMBL document CHEMBL4004825 (J Med Chem, 2017).

pIC50, pKi: −log10 of the molar value.

Assay [1] addresses T1, Tyrosine-protein kinase ITK/TSK (Homo sapiens, UniProt Q08881).
T1 sequence (Q08881 whole entry): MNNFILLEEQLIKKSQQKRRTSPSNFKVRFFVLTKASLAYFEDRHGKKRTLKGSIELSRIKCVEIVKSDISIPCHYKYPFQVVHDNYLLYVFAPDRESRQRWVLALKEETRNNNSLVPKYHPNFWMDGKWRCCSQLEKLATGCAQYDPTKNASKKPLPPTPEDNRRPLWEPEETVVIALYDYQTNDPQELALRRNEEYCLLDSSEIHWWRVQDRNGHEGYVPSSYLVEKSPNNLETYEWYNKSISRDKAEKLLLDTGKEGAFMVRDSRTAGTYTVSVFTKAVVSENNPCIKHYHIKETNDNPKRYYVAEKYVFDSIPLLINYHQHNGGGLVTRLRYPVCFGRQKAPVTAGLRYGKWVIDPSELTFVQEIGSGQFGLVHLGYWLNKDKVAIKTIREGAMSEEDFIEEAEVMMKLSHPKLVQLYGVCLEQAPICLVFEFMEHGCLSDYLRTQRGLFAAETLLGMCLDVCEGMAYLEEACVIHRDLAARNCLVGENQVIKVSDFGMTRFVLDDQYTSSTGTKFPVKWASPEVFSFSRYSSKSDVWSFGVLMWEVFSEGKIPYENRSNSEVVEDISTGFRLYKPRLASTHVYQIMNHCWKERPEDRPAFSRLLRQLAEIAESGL
The experiment in a line: Inhibition of full length recombinant human GST-tagged cytoplasmic ITK expressed in baculovirus expression system by KT236 probe based TR-FRET assay. Background: In TR-FRET formats the signal depends on donor and acceptor labels being close together.

Assay [2] addresses T2, Tyrosine-protein kinase JAK3 (Homo sapiens, UniProt P52333).
T2 sequence (P52333 whole entry): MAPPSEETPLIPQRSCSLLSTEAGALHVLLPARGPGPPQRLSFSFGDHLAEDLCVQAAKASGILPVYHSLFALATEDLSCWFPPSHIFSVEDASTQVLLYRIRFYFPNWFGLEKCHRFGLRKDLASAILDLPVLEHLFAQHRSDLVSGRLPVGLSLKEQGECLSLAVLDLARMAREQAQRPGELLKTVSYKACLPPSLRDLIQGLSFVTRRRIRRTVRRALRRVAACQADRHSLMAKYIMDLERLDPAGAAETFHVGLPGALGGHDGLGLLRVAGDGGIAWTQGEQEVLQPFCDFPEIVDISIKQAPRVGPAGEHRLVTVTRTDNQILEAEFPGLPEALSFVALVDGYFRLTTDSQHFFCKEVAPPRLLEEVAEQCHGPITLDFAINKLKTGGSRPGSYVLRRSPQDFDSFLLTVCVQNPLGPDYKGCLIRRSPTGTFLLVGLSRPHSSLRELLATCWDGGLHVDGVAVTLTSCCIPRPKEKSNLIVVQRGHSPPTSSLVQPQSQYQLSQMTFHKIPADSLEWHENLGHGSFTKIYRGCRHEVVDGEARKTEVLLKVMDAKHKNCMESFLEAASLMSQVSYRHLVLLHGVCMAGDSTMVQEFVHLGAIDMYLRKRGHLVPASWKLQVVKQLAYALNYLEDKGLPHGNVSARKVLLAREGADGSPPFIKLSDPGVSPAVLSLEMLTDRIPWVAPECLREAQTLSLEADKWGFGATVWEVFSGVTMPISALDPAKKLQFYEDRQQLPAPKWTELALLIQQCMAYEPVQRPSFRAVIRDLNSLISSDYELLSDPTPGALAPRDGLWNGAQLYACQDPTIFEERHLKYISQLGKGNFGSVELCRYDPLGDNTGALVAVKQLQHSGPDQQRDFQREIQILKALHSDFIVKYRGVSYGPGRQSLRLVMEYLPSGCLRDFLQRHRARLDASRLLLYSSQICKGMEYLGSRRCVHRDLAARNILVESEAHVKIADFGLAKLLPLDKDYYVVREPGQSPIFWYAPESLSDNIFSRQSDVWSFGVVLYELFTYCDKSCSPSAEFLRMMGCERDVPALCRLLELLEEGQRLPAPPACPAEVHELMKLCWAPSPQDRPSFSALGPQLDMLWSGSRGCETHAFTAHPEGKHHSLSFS
Kind of assay: Inhibition of JAK3 in human whole blood assessed as inhibition of IL-15 induced STAT5 phosphorylation preincubated for 45 mins followed by IL-15 addition and measured after 15 mins by Alexa Fluor 647 staining based flow cytometric analysis. For orientation: A flow cytometer gives signals particle by particle.

In assay [3] the target is T2, Tyrosine-protein kinase JAK3. Kind of assay: Inhibition of recombinant human GST-tagged cytoplasmic JAK3 catalytic domain (781 to 1124 residues) expressed in baculovirus expression system using FITC-KGGEEEEYFELVKK as substrate in presence of 4 uM ATP by microfluidic assay.
For assay [4] the target is unchanged. The experiment in a line: Inhibition of recombinant human GST-tagged cytoplasmic JAK3 catalytic domain (781 to 1124 residues) expressed in baculovirus expression system using FITC-KGGEEEEYFELVKK as substrate in presence of 1 mM ATP by microfluidic assay.
Assay [5] shares this target. Kind of assay: Inhibition of JAK3 in human PBMC assessed as inhibition of IL-15 induced STAT5 phosphorylation preincubated for 75 mins followed by IL-15 addition and measured after 15 mins by Alexa Fluor 647 staining based flow cytometry.

On to `C=CC(=O)N1C[C@H](Nc2ncnc3[nH]ccc23)CC[C@@H]1C` [RITLECITINIB], for which, in assay [1], the negative logarithm of the Ki (pKi) was 7.57.
Turning to `C=CC(=O)N1CC[C@H]2CCN(c3ncnc4[nH]ccc34)[C@H]2C1`, the negative-log IC50 (pIC50) in assay [2] is 6.40; in assay [3] it was 9.40; in assay [4], 7.33; in assay [5] it was 6.94.

Usually pKi stands for −log10 of the Ki, conventionally taken in molar units. What is called pIC50 is the negative decadic logarithm of the IC50, by convention in mol/L.
